Experimental data as given in US7247704 (ARRIVA PHARMACEUTICALS, dated 2007).

Biological target: T1, Porcine Pancreatic Elastase (porcine, UniProt P00772 27-266)
T1 sequence (looked up): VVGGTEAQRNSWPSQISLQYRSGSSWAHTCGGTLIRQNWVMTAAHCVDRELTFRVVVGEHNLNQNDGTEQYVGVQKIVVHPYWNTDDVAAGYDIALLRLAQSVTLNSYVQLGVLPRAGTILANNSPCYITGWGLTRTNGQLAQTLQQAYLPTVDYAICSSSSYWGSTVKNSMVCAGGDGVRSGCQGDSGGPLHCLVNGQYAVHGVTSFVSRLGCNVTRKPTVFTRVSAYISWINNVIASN
Experiment: cell-based or functional assay

B1: SLAPI (SLPI/AAT fusion protein) (other)
chain: MSGKSFKAGVCPPKKSAQCLRYKKPECQSDWQCPGKKRCCPDTCGIKCLDPVDTPNPTRRKPGKCPVTYGQCLMLNPPNFCEMDGQCKRDLKCCMGMCGKSCVSPVKAMEDPQGDAAQKTDTSHHDQDHPTFNKITPNLAEFAFSLYRQLAHQSNSTNIFFSPVSIATAFAMLSLGTKADTHDEILEGLNFNLTEIPEAQIHEGFQELLRTLNQPDSQLQLTTGNGLFLSEGLKLVDKFLEDVKKLYHSEAFTVNFGDTEEAKKQINDYVEKGTQGKIVDLVKELDRDTVFALVNYIFFKGKWERPFEVKDTEEEDFHVDQVTTVKVPMMKRLGMFNIQHCKKLSSWVLLMKYLGNATAIFFLPDEGKLQHLENELTHDIITKFLENEDRRSASLHLPKLSITGTYDLKSVLGQLGITKVFSNGADLSGVTEEAPLKLSKAVHKAVLTIDEKGTEAAGAMFLEAIPMSIPPEVKFNKPFVFLMIEQNTKSPLFMGKVVNPTQK
- specific anti-elastase activity, fold over AAT (Difco medium): 2 fold
- specific anti-elastase activity, fold over AAT (Red Star medium): 1.9 fold
